Earlier results, collected in patent US20090202995A1, “MOLECULAR CARDIOTOXICOLOGY MODELING” (priority 2005, published 2009).

Assays:
heart tissue [1] = details: known designation used to train the model, at the dose, time and route of Table 3
heart tissue [2] = details: known designation used to train the model, at the dose, time and route of Table 3; remark: listed apart in the source

CC(N)C(O)c1ccccc1 (centres unmarked) [Phenylpropanolamine]
Myocardial Necrosis (heart tissue [1]): 1
Andrenergic Agonist (heart tissue [2]): 1
